This is an account of results in ChEMBL document CHEMBL4828708 (Eur J Med Chem, 2021).

By UniProt entry, the sequences of proteins in these tests, tags left out.
UniProt P0DMS8, whole entry: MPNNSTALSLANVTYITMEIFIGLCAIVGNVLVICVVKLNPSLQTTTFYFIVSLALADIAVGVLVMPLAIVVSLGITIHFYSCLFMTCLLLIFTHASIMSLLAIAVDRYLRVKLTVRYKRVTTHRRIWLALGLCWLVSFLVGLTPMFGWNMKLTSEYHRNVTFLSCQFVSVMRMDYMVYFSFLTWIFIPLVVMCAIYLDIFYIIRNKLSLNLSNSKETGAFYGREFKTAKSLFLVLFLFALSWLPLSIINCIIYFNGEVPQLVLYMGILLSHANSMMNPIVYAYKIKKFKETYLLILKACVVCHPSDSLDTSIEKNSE

This assay deals with Adenosine receptor A3 (Homo sapiens, UniProt P0DMS8). The assay can be described thus: Displacement of [3H]NECA from human adenosine A3 receptor expressed in HEK293 cell membrane at 10 uM incubated for 180 mins by microplate beta scintillation counting based radioligand inhibition assay relative to control. A general note: Loss of bound radioactivity is the signal in a displacement assay; it reports binding, not function.

Take `Nc1ncnc2c1ncn2[C@@H]1O[C@H](CO)[C@@H](O)[C@H]1O`: the inhibition amounted to 10%.

As a reminder, the inhibition is the drop in the measured response relative to a control, in per cent.
